Earlier results, collected in US6624141B1, “Protamine fragment compositions and methods of use” (The Regents of The University of Michigan, priority 1999, dated 2003).

Conditions: cited from earlier work

## insulin
  pKa: about 4.5
